US9901615B2, “Method for treatment of gastric ulcers” (priority 2015, dated 2018)

Tests used:
Format in all cases: cell-based, Helicobacter pylori
Conditions in all cases: NE: No effect
H. pylori ATCC 43504 = tested on: H. pylori ATCC 43504
Procedure: (§1) Antibacterial activities were evaluated by examining MIC; determined using the micro dilution assay in sterilized 96-well plates in a final volume of 200 μl as follows. Bacterial inocula of 0.1 OD were prepared and diluted 1000 fold in BHI broth, and 180 μl aliquots were added to each well. Working standards of antimicrobial peptides (Epi-1, TH2-3, SALF, GE-33, or Chrysophsin-1) were prepared (0.9-50 μg/mL) prior to the experiment; 20 μL of AMP solution were added to each well. PBS was used as a control. The plates were incubated overnight at 37° C. in a microaerophilic atmosphere. Growth under standard conditions was determined by optical density measurements at 600 nm.

H. pylori ATCC 43629 = tested on: H. pylori ATCC 43629
Procedure: as §1

H. pylori ATCC 700392 = tested on: H. pylori ATCC 700392
Procedure: as §1

[1] = tested on: H. pylori clinical isolate CI-HP028
Procedure: as §1

Measured: MIC

CC[C@H](C)[C@H](NC(=O)[C@H](CCCCN)NC(=O)[C@@H]1CCCN1C(=O)[C@@H](NC(=O)[C@H](CC(C)C)NC(=O)[C@H](C)NC(=O)[C@H](Cc1ccccc1)NC(=O)[C@H](Cc1ccccc1)NC(=O)CN)[C@@H](C)CC)C(=O)N[C@H](C(=O)N[C@@H](CO)C(=O)N[C@@H](CO)C(=O)N1CCC[C@H]1C(=O)N[C@@H](CC(C)C)C(=O)N[C@@H](Cc1ccccc1)C(=O)N[C@@H](CCCCN)C(=O)N[C@H](C(=O)N[C@@H](CC(C)C)C(=O)N[C@@H](CC(C)C)C(=O)N[C@@H](CO)C(=O)N[C@@H](C)C(=O)N[C@H](C(=O)NCC(=O)N[C@@H](CO)C(=O)N[C@@H](C)C(=O)N[C@@H](CC(C)C)C(=O)N[C@@H](CO)C(=O)N[C@@H](CO)C(=O)N[C@@H](CO)C(=O)NCC(=O)NCC(=O)N[C@@H](CCC(N)=O)C(=O)N[C@@H](CCC(=O)O)C(=O)O)C(C)C)[C@@H](C)O)[C@@H](C)CC [Pardaxin]
>25 µg/mL: all assays above
